For this assay, the target named is CD11a/CD18-ICAM-1 interaction (recombinant human LFA-1 / human 5 domain ICAM-Ig) (Homo sapiens, UniProt P05107+P20701). To be noted: read-out: PLM2.

Sequences of proteins named here, by UniProt entry; tags and fusion partners are left off. Residues count along the entry.
UniProt P05107, 23-769: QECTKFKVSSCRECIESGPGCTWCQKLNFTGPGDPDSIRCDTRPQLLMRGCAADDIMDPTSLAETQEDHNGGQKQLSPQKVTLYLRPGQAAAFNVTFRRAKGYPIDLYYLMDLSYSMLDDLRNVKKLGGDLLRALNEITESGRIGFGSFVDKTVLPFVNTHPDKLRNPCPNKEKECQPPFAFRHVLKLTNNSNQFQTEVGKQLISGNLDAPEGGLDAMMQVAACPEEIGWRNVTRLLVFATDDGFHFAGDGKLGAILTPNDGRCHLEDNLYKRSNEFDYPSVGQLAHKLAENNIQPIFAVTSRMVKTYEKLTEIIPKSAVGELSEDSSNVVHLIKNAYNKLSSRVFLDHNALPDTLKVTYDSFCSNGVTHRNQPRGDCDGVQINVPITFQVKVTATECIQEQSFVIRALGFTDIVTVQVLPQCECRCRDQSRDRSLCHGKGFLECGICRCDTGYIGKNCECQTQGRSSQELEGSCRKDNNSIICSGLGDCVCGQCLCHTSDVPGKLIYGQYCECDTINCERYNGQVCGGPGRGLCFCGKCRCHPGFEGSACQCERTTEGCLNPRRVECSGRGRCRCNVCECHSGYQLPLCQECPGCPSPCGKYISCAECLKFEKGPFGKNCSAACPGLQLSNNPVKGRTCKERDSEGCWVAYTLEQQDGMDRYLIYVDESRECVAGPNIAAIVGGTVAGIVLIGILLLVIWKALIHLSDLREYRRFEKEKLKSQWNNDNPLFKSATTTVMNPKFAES
UniProt P20701, 26-1170: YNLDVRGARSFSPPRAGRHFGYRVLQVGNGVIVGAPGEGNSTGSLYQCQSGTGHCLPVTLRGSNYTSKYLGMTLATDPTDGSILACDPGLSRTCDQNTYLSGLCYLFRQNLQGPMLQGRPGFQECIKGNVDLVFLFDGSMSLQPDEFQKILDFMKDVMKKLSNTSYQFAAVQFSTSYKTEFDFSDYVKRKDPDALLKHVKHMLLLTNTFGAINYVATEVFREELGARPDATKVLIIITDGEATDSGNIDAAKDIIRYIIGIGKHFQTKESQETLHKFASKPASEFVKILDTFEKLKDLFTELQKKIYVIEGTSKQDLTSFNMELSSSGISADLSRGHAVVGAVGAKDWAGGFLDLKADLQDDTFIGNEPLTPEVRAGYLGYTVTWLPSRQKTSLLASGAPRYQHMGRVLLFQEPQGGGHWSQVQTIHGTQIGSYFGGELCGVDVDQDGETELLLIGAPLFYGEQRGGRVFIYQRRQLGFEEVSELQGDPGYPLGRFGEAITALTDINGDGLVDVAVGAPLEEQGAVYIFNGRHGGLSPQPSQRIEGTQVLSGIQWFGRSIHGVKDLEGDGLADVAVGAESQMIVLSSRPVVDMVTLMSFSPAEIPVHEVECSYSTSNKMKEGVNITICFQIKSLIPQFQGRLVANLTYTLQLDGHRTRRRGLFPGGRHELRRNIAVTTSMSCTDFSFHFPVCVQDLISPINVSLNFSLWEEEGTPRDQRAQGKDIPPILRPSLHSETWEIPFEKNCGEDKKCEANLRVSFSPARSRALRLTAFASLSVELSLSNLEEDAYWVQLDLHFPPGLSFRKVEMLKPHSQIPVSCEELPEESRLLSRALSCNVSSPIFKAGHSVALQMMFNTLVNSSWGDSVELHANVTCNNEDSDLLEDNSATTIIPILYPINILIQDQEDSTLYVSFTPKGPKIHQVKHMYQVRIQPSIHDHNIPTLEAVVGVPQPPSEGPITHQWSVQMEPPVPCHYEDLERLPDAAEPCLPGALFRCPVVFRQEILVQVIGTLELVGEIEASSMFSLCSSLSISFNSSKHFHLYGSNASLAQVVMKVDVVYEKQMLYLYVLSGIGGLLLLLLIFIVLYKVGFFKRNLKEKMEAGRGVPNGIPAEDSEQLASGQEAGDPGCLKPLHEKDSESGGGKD

Data on one substance can be found in patent publication US20050203135A1, “Antagonists for treatment of CD/11CD18 adhesion receptor mediated disorders” (Genentech, Inc., priority 1998, published 2005).

On to “2,2,2-trichloroethyl chloroformate [Example 333]”, for which the IC50 stood at 90 nM.
